{"source": "ChEMBL document CHEMBL1150040", "about": "“Ring size effect in the PKC inhibitory activities of perhydroazepine analogs of balanol” (Bioorg Med Chem Lett, 1995)", "target": "T1, Protein kinase C epsilon type (Homo sapiens, UniProt Q02156)", "T1 sequence (Q02156 whole entry)": "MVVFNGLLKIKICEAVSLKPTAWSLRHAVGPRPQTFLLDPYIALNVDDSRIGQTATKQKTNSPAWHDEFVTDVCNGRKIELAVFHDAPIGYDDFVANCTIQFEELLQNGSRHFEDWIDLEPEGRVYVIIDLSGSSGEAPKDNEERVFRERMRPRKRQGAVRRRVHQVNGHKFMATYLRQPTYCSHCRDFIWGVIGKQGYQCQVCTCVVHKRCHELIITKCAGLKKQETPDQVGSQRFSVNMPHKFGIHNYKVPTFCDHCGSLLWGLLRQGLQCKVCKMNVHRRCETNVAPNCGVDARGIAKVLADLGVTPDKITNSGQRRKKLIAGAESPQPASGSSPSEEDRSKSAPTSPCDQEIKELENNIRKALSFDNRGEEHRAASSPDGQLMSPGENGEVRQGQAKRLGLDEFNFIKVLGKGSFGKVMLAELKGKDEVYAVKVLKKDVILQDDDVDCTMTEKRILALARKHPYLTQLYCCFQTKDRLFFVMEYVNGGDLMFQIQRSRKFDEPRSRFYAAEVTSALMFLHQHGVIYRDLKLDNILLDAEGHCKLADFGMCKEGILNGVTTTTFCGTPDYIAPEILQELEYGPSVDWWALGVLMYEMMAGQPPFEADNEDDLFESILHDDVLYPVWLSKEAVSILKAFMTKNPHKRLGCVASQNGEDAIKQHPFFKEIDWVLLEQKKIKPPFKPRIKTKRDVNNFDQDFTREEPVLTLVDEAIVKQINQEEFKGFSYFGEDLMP", "test": "Inhibition of human Protein kinase C epsilon"}
{"compound": "O=C(N[C@@H]1CNCCC[C@H]1OC(=O)c1cc(O)c(C(=O)c2c(O)cccc2C(=O)O)c(O)c1)c1ccc(O)cc1", "note": "(racemic) [BALANOL]", "values": [{"measurement": "IC50", "result": 49, "unit": "nM"}]}
